Earlier results as cited in patent US20030125235A1, “Treatment of diseases associated with cytokine production with inhibitors of the tec family of protein tyrosine kinases” (priority 2000, published 2003).

Amino acid sequences for entries named in this document (tags omitted).
UniProt Q06187, whole entry, species assumed: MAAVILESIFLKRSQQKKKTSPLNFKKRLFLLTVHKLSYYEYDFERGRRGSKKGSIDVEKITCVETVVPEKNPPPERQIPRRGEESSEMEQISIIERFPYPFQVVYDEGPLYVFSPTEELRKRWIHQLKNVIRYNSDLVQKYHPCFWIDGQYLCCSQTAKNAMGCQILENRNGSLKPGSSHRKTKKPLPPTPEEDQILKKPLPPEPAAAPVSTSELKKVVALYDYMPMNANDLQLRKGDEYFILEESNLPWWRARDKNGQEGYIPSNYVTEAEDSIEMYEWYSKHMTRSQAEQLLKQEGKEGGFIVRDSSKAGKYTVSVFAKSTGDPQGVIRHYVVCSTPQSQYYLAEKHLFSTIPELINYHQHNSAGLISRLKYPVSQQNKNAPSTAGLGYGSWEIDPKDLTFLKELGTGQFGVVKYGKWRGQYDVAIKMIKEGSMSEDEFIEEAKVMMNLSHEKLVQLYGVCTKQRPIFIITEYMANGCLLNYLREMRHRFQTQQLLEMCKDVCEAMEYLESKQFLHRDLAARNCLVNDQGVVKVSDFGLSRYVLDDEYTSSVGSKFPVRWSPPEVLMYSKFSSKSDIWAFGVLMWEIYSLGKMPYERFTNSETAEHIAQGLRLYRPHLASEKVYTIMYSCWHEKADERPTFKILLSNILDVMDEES

Molecular target: Btk (Homo sapiens, UniProt Q06187)
Conditions: literature (Kawakami et al. 1999; Mahajan et al. 1999); cited from earlier work

For `C/C(O)=C(\C#N)C(=O)Nc1cc(Br)ccc1Br` [LFM-A13], the “inhibition of Btk” value is listed as “specifically inhibit Btk”.
